Source: US12070443B2, “Methods of treating and preventing breast cancer with S-equol” (The Board of Regents of the University of Texas System, priority 2018, dated 2024)

By UniProt entry, the sequences of proteins in these tests, tags left out.
UniProt Q92731, whole entry: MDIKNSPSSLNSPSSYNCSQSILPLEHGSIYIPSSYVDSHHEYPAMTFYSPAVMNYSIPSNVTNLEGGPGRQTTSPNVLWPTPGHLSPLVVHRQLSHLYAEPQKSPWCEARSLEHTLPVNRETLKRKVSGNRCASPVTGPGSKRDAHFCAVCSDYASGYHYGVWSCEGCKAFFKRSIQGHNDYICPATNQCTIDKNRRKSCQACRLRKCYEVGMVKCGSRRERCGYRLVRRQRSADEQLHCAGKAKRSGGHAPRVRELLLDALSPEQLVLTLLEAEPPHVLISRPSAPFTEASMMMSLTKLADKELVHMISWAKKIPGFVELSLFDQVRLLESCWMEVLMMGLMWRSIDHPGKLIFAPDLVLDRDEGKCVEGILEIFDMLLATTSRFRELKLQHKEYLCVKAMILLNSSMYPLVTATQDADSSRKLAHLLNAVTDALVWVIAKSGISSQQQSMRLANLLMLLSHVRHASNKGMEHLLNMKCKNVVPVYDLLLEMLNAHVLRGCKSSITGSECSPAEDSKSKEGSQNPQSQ

Target: T1, ERβ pY36 (Homo sapiens, UniProt Q92731)
T1 construct: MDA-MB-231, a human TNBC breast cancer cell line; endogenous in cells; host or cells: MDA-MB-231 (human TNBC line; also as xenograft tumours in athymic nude mice)
Assay: pY36-specific phosphorylation signal in MDA-MB-231 cells
Assay type: cell-based
Conditions: MDA-MB-231 cells (FIG. 18A)

pY36-specific phosphorylation signal: enhanced
SMILES: C[C@]12CC[C@@H]3c4ccc(O)cc4CC[C@H]3[C@@H]1CC[C@@H]2O [17-β-estradiol, reference compound]
